Two molecules from PMC5586342, “Mouse glutamate carboxypeptidase II (GCPII) has a similar enzyme activity and inhibition profile but a different tissue distribution to human GCPII” (FEBS Open Bio, 2017) can be followed below.

Sequences of proteins named here, by UniProt entry; tags and fusion partners are left off. Residues count along the entry.
UniProt Q04609, 44-750 limits assumed: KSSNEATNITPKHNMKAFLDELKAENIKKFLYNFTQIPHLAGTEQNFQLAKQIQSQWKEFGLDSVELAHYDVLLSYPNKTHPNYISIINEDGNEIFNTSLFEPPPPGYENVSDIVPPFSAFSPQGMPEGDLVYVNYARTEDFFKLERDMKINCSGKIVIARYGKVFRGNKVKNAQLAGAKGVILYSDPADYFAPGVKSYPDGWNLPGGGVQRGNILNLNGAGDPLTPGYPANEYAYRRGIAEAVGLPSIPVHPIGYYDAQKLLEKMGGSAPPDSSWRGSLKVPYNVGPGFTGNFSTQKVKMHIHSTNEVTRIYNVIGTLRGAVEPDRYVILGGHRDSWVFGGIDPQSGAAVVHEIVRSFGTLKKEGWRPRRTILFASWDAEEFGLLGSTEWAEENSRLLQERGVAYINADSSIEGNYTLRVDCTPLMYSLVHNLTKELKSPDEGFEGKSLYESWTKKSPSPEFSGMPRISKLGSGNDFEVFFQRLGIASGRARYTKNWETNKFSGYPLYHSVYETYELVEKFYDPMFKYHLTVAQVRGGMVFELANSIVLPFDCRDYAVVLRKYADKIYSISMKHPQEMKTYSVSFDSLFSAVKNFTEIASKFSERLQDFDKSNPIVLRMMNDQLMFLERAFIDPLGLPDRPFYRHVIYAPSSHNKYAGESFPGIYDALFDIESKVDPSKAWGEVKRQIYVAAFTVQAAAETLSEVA
UniProt O35409, 45-752 limits assumed: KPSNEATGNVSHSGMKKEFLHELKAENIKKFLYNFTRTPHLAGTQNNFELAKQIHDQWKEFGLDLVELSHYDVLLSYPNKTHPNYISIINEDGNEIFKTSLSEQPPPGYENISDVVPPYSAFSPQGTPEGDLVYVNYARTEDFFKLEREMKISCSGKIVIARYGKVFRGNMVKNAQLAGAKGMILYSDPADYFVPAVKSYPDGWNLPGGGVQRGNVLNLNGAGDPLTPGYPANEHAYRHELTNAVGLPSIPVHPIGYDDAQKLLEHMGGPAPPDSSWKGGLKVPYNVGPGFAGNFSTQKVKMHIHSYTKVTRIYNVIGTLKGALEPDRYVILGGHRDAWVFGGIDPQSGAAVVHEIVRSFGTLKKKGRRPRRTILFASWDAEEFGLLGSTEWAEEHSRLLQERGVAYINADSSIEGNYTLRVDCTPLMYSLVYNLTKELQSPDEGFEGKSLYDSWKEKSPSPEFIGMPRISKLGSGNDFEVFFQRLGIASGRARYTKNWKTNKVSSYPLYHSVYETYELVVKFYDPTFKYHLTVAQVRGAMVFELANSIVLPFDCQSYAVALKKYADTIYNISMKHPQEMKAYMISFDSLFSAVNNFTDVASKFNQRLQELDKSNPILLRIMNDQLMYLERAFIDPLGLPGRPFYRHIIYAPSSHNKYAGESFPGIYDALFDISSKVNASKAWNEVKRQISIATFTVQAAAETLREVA

Each structure is given as a SMILES string.

In experiment [1] the target is Avi-hGCPII (recombinant extracellular human GCPII) (Homo sapiens, UniProt Q04609). Nature of the experiment: HPLC assay of pteroyl-di-L-glutamate cleavage. The format is biochemical. To be noted: read-out: K i (Avi-hGCPII); substrate pteroyl-di-L-glutamate ([…] final), […] Bis-Tris propane, […] NaCl, pH […] °C.
Experiment [2] has as its target Avi-mGCPII (recombinant extracellular mouse GCPII) (Mus musculus, UniProt O35409). Nature of the experiment: HPLC assay of pteroyl-di-L-glutamate cleavage. The format is biochemical. To be noted: read-out: K i (Avi-mGCPII); substrate pteroyl-di-L-glutamate ([…] final), […] Bis-Tris propane, […] NaCl, pH […] °C.

With `CC(=O)N(CCCC[C@H](NC(=O)N[C@@H](CCC(=O)O)C(=O)O)C(=O)O)Cc1ccc(Br)cc1` (single isomer, unassigned), the Ki in experiment [1] is 0.05 nM; in experiment [2], 0.68 nM.

Turning to `CC(=O)NCCCC[C@H](NC(=O)N[C@@H](CCC(=O)O)C(=O)O)C(=O)O` (single isomer, unassigned), the Ki turned out to be 0.17 nM in experiment [1] and 0.66 nM in experiment [2].
